From PubChem BioAssay (Tox21)
The list shows a part of the results, in another mix than the full data. Inconclusive results are not listed. Calls of active or inactive are those of the source. Calls follow the shape of the dose curve; as a rule, active = well fitted activation curve with a large enough effect in the repeat runs; inconclusive = weak or mixed curves; inactive = flat fitted curve, though single readings scatter.

Experiment: A CellTox Green Cytotoxicity Assay to monitor cytotoxicity in HepG2 cells - 8 hour (AID 1224890); also: nearly all actives have a fitted effect of over 45% in size
Conditions: CellTox Green fluorescence; series mostly up to 76.8 µM; cytotoxicity increase: at the top concentration
Description: National Center for Advancing Translational Sciences [NCATS]
NIH Chemical Genomics Center [NCGC]
U.S. Environmental Protection Agency [EPA]
National Institutes of Environmental Health Sciences [NIEHS]
National Toxicology Program [NTP]
Cell-based models are critical for drug discovery. Determining the natural cytotoxic effects resulting from test compounds is an essential research activity. A CellTox Green Cytotoxicity Assay to monitor cytotoxicity in real time of continues cell culture during 40 hours of the compound treatment was used to screen Tox21 10K library compounds in HepG2 cells. CellTox Green Cytotoxicity Assay is a nonlytic, homogeneous, biofluorescent method to measure cytotoxicity in cell culture after experimental manipulation. The assay system uses a proprietary asymmetric cyanine dye that is excluded from viable cells but preferentially stains the dead cell's DNA. […] Viable cells produce no appreciable increases in fluorescence. Therefore, the fluorescence signal produced by the binding interaction with dead cell DNA is proportional to cytotoxicity.
The mixture of HepG2 cell suspension and reagents were dispensed at 600cells/6 ul/well in 1536-well tissue culture treated black solid bottom plates using a Multidrop dispenser. After the assay plates were incubated at a 37 C/5% CO2 incubator for 5 hours, 23 nL of compounds dissolved in DMSO, positive and negative controls was transferred to the assay plate by a pintool work station. The plates were incubated at 37 C for 40 hours. The fluorescence intensity were measured at 0h, 8h, 16h, 24h, 32h and 40h time points using ViewLux plate reader during compound treatment.
% is scaled to controls: 0 for no effect and ±100 for the full control effect; potency is read from the fitted curve at half-maximal effect.

Question: Which Potency does the source give for `O=[As]c1ccccc1` (stereo not drawn) here?
Answer: The Potency was active: 3.09 µM.

Question: With `O=[P+](Oc1ccccc1)Oc1ccccc1` as the molecule, how does the “cytotoxicity increase” value read?
Answer: Its value is inactive: -1.81%.

Question: For `CCCCC(CC)CO[P+](=O)OCC(CC)CCCC` (stereo not drawn), which “cytotoxicity increase” value is on record?
Answer: Its value is inactive: 6.46%.

Question: Which “cytotoxicity increase” value does the source give for `CN(C(=O)Cc1cccc2occc12)[C@H]1CC[C@@]2(CCCO2)C[C@@H]1N1CCCC1` here?
Answer: Its value is inactive: -0.967%.

Question: For `CC(C)CCCCCCCOP(OCCCCCCCC(C)C)Oc1ccccc1`, which “cytotoxicity increase” value is on record?
Answer: The value was inactive: -28%.

Question: With `CCOC(=O)Cl` as the molecule, how does the “cytotoxicity increase” value read?
Answer: The value was inactive: -0.587%.

Question: For `O=[N+]([O-])c1ccc([N+](=O)[O-])cc1`, which “cytotoxicity increase” value is on record?
Answer: The value was inactive: -36.5%.

Question: With `NC(=O)Nc1ccc([As](=O)(O)O)cc1` as the molecule, how does the Potency read?
Answer: Its Potency is “inactive”.

Question: For `O=[p+]1oc2ccccc2c2ccccc21` (stereo not drawn), which “cytotoxicity increase” value is on record?
Answer: The value was inactive: 4.85%.

Question: With `O=C(Cl)OCCOC(=O)Cl` as the molecule, how does the “cytotoxicity increase” value read?
Answer: The value was inactive: -9.92%.

Question: For `CCC(C)(OOC(C)(C)C)OOC(C)(C)C`, which cytotoxicity increase is on record?
Answer: The cytotoxicity increase was inactive: -22.2% [at 15.8 µM].

Question: For `O=C(Cl)Oc1ccccc1`, which “cytotoxicity increase” value is on record?
Answer: The value was inactive: -5.95%.

Question: With `O=P(Cl)(Oc1ccccc1)Oc1ccccc1` as the molecule, how does the “cytotoxicity increase” value read?
Answer: Its value is inactive: -7.54%.

Question: For `Cc1cc([N+](=O)[O-])c(O)c([N+](=O)[O-])c1`, which “cytotoxicity increase” value is on record?
Answer: The value was inactive: -24.8%.

Question: For `CCCCO[P+](=O)OCCCC`, which Potency is on record?
Answer: The Potency was “inactive”.

Question: With `O=[N+]([O-])c1ccc(S(=O)(=O)O)c([N+](=O)[O-])c1` as the molecule, how does the “cytotoxicity increase” value read?
Answer: The value was inactive: 0.206%.

Question: With `CN(C(=O)Cc1ccc(Cl)c(Cl)c1)[C@H]1CC[C@@]2(CCCO2)C[C@@H]1N1CCCC1` as the molecule, how does the “cytotoxicity increase” value read?
Answer: Its value is inactive: 0.204% [at 35.3 µM].

Question: With `COP(=S)(Cl)OC` as the molecule, how does the “cytotoxicity increase” value read?
Answer: The value was inactive: 2.17%.

Question: With `CCNC(C)Cc1ccc2c(c1)OCO2` (stereo not drawn) as the molecule, how does the “cytotoxicity increase” value read?
Answer: The value was inactive: -12.8%.

Question: Which “cytotoxicity increase” value does the source give for `CC(C)OP(=S)(OC(C)C)SCCNS(=O)(=O)c1ccccc1` here?
Answer: Its value is inactive: 2.92%.

Question: With `COC(=O)Cl` as the molecule, how does the “cytotoxicity increase” value read?
Answer: Its value is inactive: -4.1%.

Question: Which “cytotoxicity increase” value does the source give for `CCCCOP(OCCCC)OCCCC` here?
Answer: The value was inactive: -12.9%.

Question: Which “cytotoxicity increase” value does the source give for `CCOP(=S)(CC)Sc1ccccc1` (stereo not drawn) here?
Answer: Its value is inactive: -7.75%.

Question: Which “cytotoxicity increase” value does the source give for `CN(N=O)C(=N)N[N+](=O)[O-]` here?
Answer: The value was inactive: 5.46%.

Question: For `CN(C(=O)Cc1ccccc1)[C@H]1CC[C@@]2(CCCO2)C[C@@H]1N1CCCC1`, which “cytotoxicity increase” value is on record?
Answer: Its value is inactive: 9.76% [at 35.3 µM].

Question: Which Potency does the source give for `Cc1cc([N+](=O)[O-])cc([N+](=O)[O-])c1O` here?
Answer: The Potency was “inactive”.

Question: With `ClP(Cl)c1ccccc1` as the molecule, how does the “cytotoxicity increase” value read?
Answer: Its value is inactive: -12.6%.

Question: Which “cytotoxicity increase” value does the source give for `O=P(Cl)(Cl)c1ccccc1` here?
Answer: The value was inactive: -15.5%.
